System: MDA-MB-231
Experiment: Antiproliferative activity against human MDA-MB-231 cells after 72 hrs by colorimetric tetrazolium assay
Assay type: functional, cell-based
Conditions: MDA-MB-231, 72 h
Outline: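 MDA-MB-231 cells grown in DMEM with 10% FBS and penicillin/streptomycin at 37 °C, 5% CO2, used within passages 10-25. Seeded at 2400 cells/well in DMEM with 5% FBS for 24 h, then exposed to compound (final DMSO 0.5% v/v) for 72 h. MTS-type tetrazolium reagent added for 2 h at 37 °C, absorbance read at 490 nm, blank subtracted. Triplicate wells. IC50 from sigmoidal viability curve, mean of at least two determinations.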

- IC50: 21.8 µM
Compound: CCCCCCCCn1cc(CC(N)=O)c2cc(-c3cccc(C)c3)ccc21

From ChEMBL document CHEMBL1255568, “Amino derivatives of indole as potent inhibitors of isoprenylcysteine carboxyl methyltransferase” (J Med Chem, 2010)
